We go through four compounds from PubChem BioAssay (Tox21).

Amino acid sequences for entries named in this document (tags omitted).
UniProt P16473, whole entry: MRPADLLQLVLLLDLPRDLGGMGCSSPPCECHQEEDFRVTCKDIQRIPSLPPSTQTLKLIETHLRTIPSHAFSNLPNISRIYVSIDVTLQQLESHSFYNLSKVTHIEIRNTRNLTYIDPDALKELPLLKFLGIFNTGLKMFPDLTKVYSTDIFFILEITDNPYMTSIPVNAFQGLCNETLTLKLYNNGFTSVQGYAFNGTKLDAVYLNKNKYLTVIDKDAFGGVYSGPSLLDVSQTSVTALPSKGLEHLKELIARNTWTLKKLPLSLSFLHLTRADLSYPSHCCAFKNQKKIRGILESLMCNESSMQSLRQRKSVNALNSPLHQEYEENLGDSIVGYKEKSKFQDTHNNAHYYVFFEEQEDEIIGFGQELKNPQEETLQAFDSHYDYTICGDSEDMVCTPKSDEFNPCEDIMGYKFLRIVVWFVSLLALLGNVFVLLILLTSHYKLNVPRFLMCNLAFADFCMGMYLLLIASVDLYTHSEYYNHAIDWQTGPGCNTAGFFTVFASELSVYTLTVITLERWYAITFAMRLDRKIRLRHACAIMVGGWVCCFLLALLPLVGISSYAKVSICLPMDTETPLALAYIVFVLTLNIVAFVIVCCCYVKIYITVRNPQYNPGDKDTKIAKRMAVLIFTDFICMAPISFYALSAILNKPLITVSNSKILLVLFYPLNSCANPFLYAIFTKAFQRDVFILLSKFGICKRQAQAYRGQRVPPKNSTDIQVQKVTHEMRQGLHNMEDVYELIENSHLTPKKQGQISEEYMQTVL
UniProt Q92731, whole entry: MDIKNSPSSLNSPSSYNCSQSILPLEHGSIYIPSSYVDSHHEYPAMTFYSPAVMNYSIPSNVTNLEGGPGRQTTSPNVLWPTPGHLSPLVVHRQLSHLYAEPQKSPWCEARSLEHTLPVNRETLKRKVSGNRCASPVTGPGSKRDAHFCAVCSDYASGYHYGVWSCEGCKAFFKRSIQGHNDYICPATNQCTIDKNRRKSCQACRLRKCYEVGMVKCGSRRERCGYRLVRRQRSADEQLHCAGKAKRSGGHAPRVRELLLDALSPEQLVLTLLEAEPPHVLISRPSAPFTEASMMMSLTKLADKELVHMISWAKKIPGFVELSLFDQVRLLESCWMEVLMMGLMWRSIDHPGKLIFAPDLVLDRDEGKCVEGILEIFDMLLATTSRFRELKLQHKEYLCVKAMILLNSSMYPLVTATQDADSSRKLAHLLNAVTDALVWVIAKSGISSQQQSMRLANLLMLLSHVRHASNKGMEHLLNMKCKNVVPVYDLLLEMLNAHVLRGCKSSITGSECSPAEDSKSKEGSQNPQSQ
UniProt P03372, whole entry: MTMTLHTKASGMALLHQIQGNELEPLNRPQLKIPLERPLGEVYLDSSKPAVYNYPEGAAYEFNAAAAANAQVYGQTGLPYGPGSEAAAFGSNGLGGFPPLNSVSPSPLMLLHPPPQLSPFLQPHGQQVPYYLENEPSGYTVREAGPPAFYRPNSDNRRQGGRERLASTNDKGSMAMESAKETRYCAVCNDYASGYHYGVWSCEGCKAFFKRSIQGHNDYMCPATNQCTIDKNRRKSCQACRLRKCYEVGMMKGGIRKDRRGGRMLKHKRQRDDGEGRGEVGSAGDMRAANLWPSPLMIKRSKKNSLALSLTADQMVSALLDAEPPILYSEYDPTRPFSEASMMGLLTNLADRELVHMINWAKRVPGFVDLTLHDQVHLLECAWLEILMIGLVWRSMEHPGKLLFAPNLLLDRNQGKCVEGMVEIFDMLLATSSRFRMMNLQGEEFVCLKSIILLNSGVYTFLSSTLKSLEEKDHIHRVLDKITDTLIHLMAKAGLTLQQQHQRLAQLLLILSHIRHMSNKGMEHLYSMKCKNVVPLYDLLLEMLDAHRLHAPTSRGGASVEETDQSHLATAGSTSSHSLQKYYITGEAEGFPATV
UniProt P10275, whole entry: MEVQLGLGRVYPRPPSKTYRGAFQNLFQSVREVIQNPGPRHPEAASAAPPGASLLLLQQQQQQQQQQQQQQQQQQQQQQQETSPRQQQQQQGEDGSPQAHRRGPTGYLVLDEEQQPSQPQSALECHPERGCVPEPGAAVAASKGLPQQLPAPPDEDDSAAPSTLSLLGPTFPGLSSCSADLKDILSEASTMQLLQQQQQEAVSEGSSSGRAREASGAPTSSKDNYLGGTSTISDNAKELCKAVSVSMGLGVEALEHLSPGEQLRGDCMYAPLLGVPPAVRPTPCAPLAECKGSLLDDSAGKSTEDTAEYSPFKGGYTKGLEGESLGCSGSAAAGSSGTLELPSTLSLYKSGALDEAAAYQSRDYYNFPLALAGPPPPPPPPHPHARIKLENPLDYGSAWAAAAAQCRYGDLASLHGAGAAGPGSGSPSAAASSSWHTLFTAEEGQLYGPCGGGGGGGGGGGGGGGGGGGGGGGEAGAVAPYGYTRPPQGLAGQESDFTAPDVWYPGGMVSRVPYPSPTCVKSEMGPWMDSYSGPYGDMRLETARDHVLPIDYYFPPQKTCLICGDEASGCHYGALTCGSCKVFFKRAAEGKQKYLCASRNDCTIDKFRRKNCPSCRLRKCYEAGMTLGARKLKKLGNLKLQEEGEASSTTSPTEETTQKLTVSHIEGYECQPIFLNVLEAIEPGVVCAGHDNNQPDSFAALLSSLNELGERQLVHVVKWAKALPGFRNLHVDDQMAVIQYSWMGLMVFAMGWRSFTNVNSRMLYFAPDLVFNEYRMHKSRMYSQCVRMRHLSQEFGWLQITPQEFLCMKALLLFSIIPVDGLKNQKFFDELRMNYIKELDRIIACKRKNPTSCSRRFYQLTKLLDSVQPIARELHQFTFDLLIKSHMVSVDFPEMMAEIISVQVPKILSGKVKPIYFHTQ

Where “and” joins values, the source holds several entries; their conditions need not be identical. Equal values may be shown once. The entries are a selection whose mix differs from that of the whole data set. Inconclusive results are not listed. Calls of active or inactive are those of the source. Unless noted, the call rests on the fitted dose curve; in most records, active means well fitted curve in the direction sought with a large enough effect in the repeat runs; inconclusive means weak or mixed curves; inactive means no such curve, though single readings can be large; an effect the other way counts as inactive or inconclusive.

The nature of assay [1]: A CellTox Green Cytotoxicity Assay to monitor cytotoxicity in HepG2 cells - 8 hour (AID 1224890). Further: nearly all actives have a fitted effect of over 45% in size. As to conditions: CellTox Green fluorescence; at 76.8 µM (top of the series). In short, it runs like this:
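Fluorescent DNA-binding dye, 600 HepG2 cells/well, 5 h preincubation then compound in DMSO; same plates read at 0–40 h, 37 C.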

The nature of assay [2]: qHTS assay to identify small molecule antagonists of the estrogen receptor alpha (ER-alpha) signaling pathway using the BG1 cell line in the presence of 0.1 nM 17-beta-estradiol - cell viability counter screen (AID 1259241). Further: nearly all actives have a fitted effect of over 40% in size. To be noted: VM7Luc4E2 (BG1) viability, CellTiter-Fluor protease, 22 h, 0.1 nM estradiol agonist added; at 92.4 µM (top of the series) unless noted. The method, boiled down: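 Measures cytotoxicity alongside the ER-alpha antagonist readout: VM7Luc4E2 cells, charcoal-stripped serum, 0.1 nM 17beta-estradiol final, 22 hr compound incubation at 37C, CellTiter-Fluor fluorescence.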

The nature of assay [3]: qHTS assay to identify small molecule antagonists of the androgen receptor (AR) signaling pathway using the MDA cell line in the presence of 0.5 nM R1881 - cell viability counter screen (AID 1259242). Further: nearly all actives have a fitted effect of over 45% in size. Further: potency means the concentration at half of the fitted maximal effect. To be noted: MDA-kb2 viability, CellTiter-Fluor protease fluorescence, 16 h; series mostly up to 92.4 µM. In short, it runs like this: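 Human breast carcinoma MDA-kb2 cells, cultured without CO2, receive compounds alongside 0.5 nM (final) R1881 agonist. After 16 hr at 37C, viability is taken as live-cell protease signal.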

The nature of assay [4]: qHTS assay to identify small molecule HDAC inhibitors (AID 1259364).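 Further: wild-type HCT-116 cells with endogenous class I/II HDAC activity; top concentration of the series differs between compounds; nearly all actives have a fitted effect of over 45% in size.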 To be noted: HCT-116 HDAC-Glo I/II luminescence, 2 h; at 92.4 µM (top of the series) unless noted. The method, boiled down: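 After a 2 hr compound incubation (37C, 5% CO2), HCT-116 cells seeded at 1,500/well the day before received HDAC-Glo reagent; signal read as luminescence after 30 min at room temperature.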

The nature of assay [5]: qHTS assay to identify small molecule HDAC inhibitors - cell viability counter screen (AID 1259365). Further: nearly all actives have a fitted effect of over 50% in size. To be noted: HCT-116 viability, CellTiter-Glo ATP luminescence, 2 h; at 92.4 µM (top of the series) unless noted. In short, it runs like this: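 Following a 2hr exposure of overnight-plated wild-type HCT-116 cells to DMSO-delivered compounds, CellTiter-Glo was added and luminescence recorded after 30min at room temperature.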

Assay [6] in a line: qHTS assay to identify small molecule agonists of the sonic hedgehog signaling (Shh) pathway - cell viability counter screen (AID 1259366). Further: nearly all actives have a fitted effect of over 50% in size. To be noted: NIH/3T3 Gli1-Luc viability, CellTiter-Fluor, 24 h; at 92.4 µM (top of the series) unless noted. In short, it runs like this: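 After a 4hr attachment at 37C, NIH/3T3 cells bearing an integrated Gli1-driven luciferase reporter were dosed with compounds. Treatment lasted 24hr, with the final hour including CellTiter-Fluor for a fluorescence viability measurement.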

Assay [7] in a line: qHTS assay to identify small molecule antagonists of the sonic hedgehog signaling (Shh) pathway - cell viability counter screen (AID 1259367). Further: nearly all actives have a fitted effect of over 55% in size. To be noted: NIH/3T3 Gli1-Luc viability, CellTiter-Fluor, 24 h; at 92.4 µM (top of the series) unless noted. In short, it runs like this:
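Viability was read by CellTiter-Fluor fluorescence in the same wells, reagent added 23 hr into compound treatment and incubated 1 hr at 37C. The 3T3 Gli1-Luc reporter cells (2,000/well) received conditioned medium after compound and ran 24 hr.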

A short description of assay [8]: qHTS assay to identify small molecule agonists of the sonic hedgehog signaling (Shh) pathway (AID 1259368; calls by dose curve;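 further: NIH/3T3-derived 3T3Gli1-Luc cells carrying a stable Gli1-driven firefly luciferase reporter; nearly all actives have a fitted effect of over 15% in size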). To be noted: NIH/3T3 Gli1-Luc reporter, luciferase, 24 h, hits give high values; at 92.4 µM (top of the series) unless noted. The method, boiled down: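 Stable NIH/3T3 Gli1-Luc reporter clone; 24 hr cpd exposure after a 4 hr settling period; luminescence endpoint.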

Assay [9] in a line: qHTS assay to identify small molecule antagonists of the sonic hedgehog signaling (Shh) pathway (AID 1259369; calls by dose curve; further: nearly all actives have a fitted effect of over 45% in size). As to conditions: NIH/3T3 Gli1-Luc reporter, Shh antagonist, luminescence 24 h; at 92.4 µM (top of the series) unless noted. The method, boiled down:
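Gli1 transcriptional reporter (firefly Luc) in NIH/3T3 background, conditioned-medium activated. 24hr exposure, luminescence endpoint.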

The nature of assay [10]: qHTS assay to identify small molecule agonists of the androgen receptor (AR) signaling pathway in the presence of an antagonist - cell viability counter screen (AID 1259379). Further: nearly all actives have a fitted effect of over 25% in size. Further: potency means the concentration at half of the fitted maximal effect.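 On activity change, negative = cytotoxicity: MDA-kb2 human breast cancer cells carrying an MMTV luciferase reporter.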 As to conditions: MDA-kb2 viability, CellTiter-Fluor, 16 h; series mostly up to 92.4 µM. The method, boiled down: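 Counter screen for cell viability run in parallel with the AR agonist-mode luciferase assay. MDA-kb2 cells were co-treated with nilutamide (3.0uM final) and compounds, then incubated 16 hr at 37C, and CellTiter-Fluor fluorescence was measured.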

The nature of assay [11]: qHTS assay to identify small molecule agonists of the estrogen receptor beta (ER-beta) signaling pathway - cell viability counter screen (AID 1259380). Further: nearly all actives have a fitted effect of over 30% in size. To be noted: ER-beta-bla HEK293T viability, CellTiter-Glo luminescence, 16 h; at 92.4 µM (top of the series) unless noted. The method, boiled down:
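In this qHTS counter screen, HEK293T cells carrying an ER-beta/UAS beta-lactamase reporter, grown in 2% charcoal-stripped FBS, received compound for 16 hr; ATP-based CellTiter-Glo luminescence was then read after 30 min at room temperature.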

Assay [12] in a line: qHTS assay to identify small molecule antagonists of the estrogen receptor beta (ER-beta) signaling pathway - cell viability counter screen (AID 1259382).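 Further: HEK293T cells carrying ER-beta-UAS-bla reporter stimulated with estradiol; nearly all actives have a fitted effect of over 55% in size.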 To be noted: ER-beta-UAS-bla HEK293T viability, CellTiter-Glo luminescence, 16 h; at 92.4 µM (top of the series) unless noted. The method, boiled down: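 HEK293T ER-beta-UAS-bla, 2% charcoal-stripped FBS; compounds + 1nM E2 16 hr 37C; CellTiter-Glo luminescence, 30 min RT.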

Assay [13] is described as follows: qHTS assay to identify small molecule agonists or antagonists of the thyroid stimulating hormone receptor (TSHR) signaling pathway - wild type cell line counter screen (AID 1259384; calls by dose curve). As to conditions: HEK293 wild type, cAMP HTRF counter-screen, hits give high values; at 92.4 µM (top of the series) unless noted. The method, boiled down:
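Counter screen in untransfected Hek293: compounds (15-point titration, triplicate) plus phosphodiesterase inhibitor Ro20-1724 added after 18 h plating; 30 min RT. Intracellular cAMP via competitive d2/cryptate immunoassay, 1 h incubation.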

Assay [14] concerns the target Thyrotropin receptor (Homo sapiens) (UniProt P16473). The assay can be described thus: qHTS assay to identify small molecule antagonists of the thyroid stimulating hormone receptor (TSHR) signaling pathway (AID 1259385; calls by dose curve; further: nearly all actives have a fitted effect of over 20% in size). As to conditions: TSHR-HEK293 cAMP HTRF, TSH-stimulated antagonist mode; at 92.4 µM (top of the series) unless noted.
Assay [15] deals with Estrogen receptor beta (Homo sapiens) (UniProt Q92731). The assay can be described thus: qHTS assay to identify small molecule agonists of the estrogen receptor beta (ER-beta) signaling pathway (AID 1259377; active means well fitted activation curve with a large enough effect in the signal ratio in the repeat runs, not every such curve was filed as active; the % refers to the signal ratio). As to conditions: ER-beta-UAS-bla HEK293T, beta-lactamase FRET ratio, 16 h; at 92.4 µM (top of the series) unless noted.
Assay [16] has the same target. Put plainly: qHTS assay to identify small molecule antagonists of the estrogen receptor beta (ER-beta) signaling pathway (AID 1259378; active means well fitted inhibition curve with a large enough effect in the signal ratio in the repeat runs, not every such curve was filed as active; the % refers to the signal ratio). To be noted: ER-beta-UAS-bla HEK293T, beta-lactamase FRET ratio, 16 h; at 92.4 µM (top of the series) unless noted. The method, boiled down:
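Antagonist mode: compounds added to beta-lactamase reporter HEK293T ER-beta-UAS cells stimulated with E2 (1nM final), 16 hr at 37C. LiveBLAzer B/G FRET substrate, 2 hours room temperature, fluorescence read-out.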

The target of assay [17] is Estrogen receptor (Homo sapiens) (UniProt P03372). The assay can be described thus: qHTS assay to identify small molecule antagonists of the estrogen receptor alpha (ER-alpha) signaling pathway using the BG1 cell line in the presence of 0.1 nM 17-beta-estradiol (AID 1259244). Further: nearly all actives have a fitted effect of over 50% in size. As to conditions: VM7Luc4E2 (BG1) ERE-luciferase, antagonist mode, 0.1 nM E2, 22 h; at 92.4 µM (top of the series) unless noted.

The target is the same in assay [18]. The assay can be described thus: qHTS assay to identify small molecule agonists of the estrogen receptor alpha (ER-alpha) signaling pathway in the presence of an antagonist (AID 1259383; calls by dose curve; further: top concentration of the series differs between compounds; nearly all actives have a fitted effect of over 15% in size). To be noted: VM7Luc4E2 cells, ERE-luciferase, +ICI-182,780, 22 h; at 92.4 µM (top of the series) unless noted.
Assay [19] has as its target Androgen receptor (Homo sapiens) (UniProt P10275). Put plainly: qHTS assay to identify small molecule antagonists of the androgen receptor (AR) signaling pathway using the MDA cell line in the presence of 0.5 nM R1881 (AID 1259243). Further: nearly all actives have a fitted effect of over 50% in size. As to conditions: MDA-kb2 MMTV-luciferase, R1881 0.5 nM, 16 h; at 92.4 µM (top of the series) unless noted.
Assay [20] shares this target. The assay can be described thus: qHTS assay to identify small molecule agonists of the androgen receptor (AR) signaling pathway in the presence of an antagonist (AID 1259381; calls by dose curve; further: nearly all actives have a fitted effect of over 15% in size). To be noted: MDA-kb2 MMTV-luciferase, AR agonist + nilutamide, 16 h; at 92.4 µM (top of the series) unless noted.
On the % scale 0 is the no-effect control and ±100 the full control effect.

With `CCOP(=S)(Cl)OCC`, in assay [1], the cytotoxicity increase was inactive: -2.28%. In addition, the activity change, negative = cytotoxicity in [2] is inactive: 12.1%; in assay [5] it was inactive: -1.57%; in assay [11], inactive: 5.62%; in [12], inactive: 2.84%. Besides, the Potency entry in assay [3] and in assay [10] was “inactive” throughout. Further, the figures for the activity change, negative = inhibition in [4], in assay [9] and in [14] were inactive: 3.23%, inactive: -7.94% and inactive: 3.43%, respectively. Also, the figures for the viability change, negative = cytotoxic in [6] and in assay [7] were inactive: 2.9% and inactive: -1.07%, respectively. Moreover, in [8], the activity change is inactive: -2.43%. The cAMP activity change in assay [13] is inactive: 7.12%.

Regarding `O=[N+]([O-])c1ccccc1[N+](=O)[O-]`, the cytotoxicity increase in assay [1] is inactive: -2.69% and inactive: 2.78%. The activity change, negative = cytotoxicity in assay [2] is inactive: -22.9% and inactive: -17.4%; in assay [5], inactive: -3.18% and inactive: -0.725%; in assay [12], inactive: -16.3%. In addition, the Potency in assay [3] is active: 70.3 µM; in assay [10], active: 62.7 µM. In addition, the activity change, negative = inhibition in [4] was inactive: -2.03% and inactive: -2.79%; in [14] it was inactive: 7.59% and inactive: 6.69%. For the same compound, the activity change in assay [8] is inactive: 5.87% and inactive: -13.8%. In addition, the activation in assay [15] is inactive: -0.426%. In assay [16], the activity, negative = inhibition was inactive: -25.4%. Besides, in assay [13], the cAMP activity change is inactive: -5.55% and inactive: -1.44%.

Regarding `ClCCOP(OCCCl)OCCCl`, in [1], the cytotoxicity increase was inactive: -10.8% and inactive: -12.2%. Further, the activity change, negative = cytotoxicity is inactive: -10.3% and inactive: 3.11% in assay [2]; inactive: -5.15% and inactive: -1.06% in assay [5]; inactive: -0.515% and inactive: 1.46% in assay [11]; inactive: -0.191% and inactive: 5.43% in [12]. Besides, the Potency result in [3] and in [10] was “inactive” each time. Moreover, the activity change, negative = inhibition in assay [17] was inactive: -7.73% and inactive: -1.47%; in assay [4], inactive: 2.52% and inactive: 2.61%; in assay [9] it was inactive: 20.4% and inactive: 13.8%; in [14] it was inactive: 0.293% and inactive: -0.439%. In addition, the viability change, negative = cytotoxic in assay [6] was inactive: -13.3% and inactive: 3.1%; in assay [7] it was inactive: 3.3% and inactive: 2.67%. Also, in [8], the activity change was inactive: 0.187% and inactive: -0.658%. In addition, the activation in assay [18] was inactive: -0.0421% and inactive: -0.069%. The cAMP activity change in assay [13] was inactive: -5.69%.

For `CCOC(=O)N1CCC(=O)CC1`, the activity change, negative = cytotoxicity is inactive: 1.23% [at 42.5 µM] in [2], inactive: 0.231% [at 42.5 µM] in [5], inactive: 0.24% [at 42.5 µM] in assay [11] and inactive: 0.724% [at 42.5 µM] in assay [12]. Further, the Potency entry in assay [3] and in assay [10] was “inactive” in each case. Also, the activity, negative = inhibition was inactive: -0.0657% [at 42.5 µM] in [19] and inactive: -6.41% [at 42.5 µM] in assay [16]. Also, the activity change, negative = inhibition was inactive: -0.48% [at 42.5 µM] in assay [4], inactive: 12.5% [at 42.5 µM] in [9] and inactive: 1.54% [at 42.5 µM] in assay [14]. In addition, the viability change, negative = cytotoxic is inactive: 3.21% [at 42.5 µM] in [6] and inactive: 1.53% [at 42.5 µM] in [7]. In addition, the activity change in assay [8] was inactive: 0.04% [at 42.5 µM]. Also, the activation in assay [15] is inactive: -3.44% [at 42.5 µM]; in assay [20], inactive: 0.28% [at 42.5 µM]. In addition, the cAMP activity change in [13] was inactive: 3.24% [at 42.5 µM].
